# Data: ChEMBL document CHEMBL4138062, “Pyrazolobenzothiazine-based carbothioamides as new structural leads for the inhibition of monoamine oxidases: design, synthesis, in vitro bioevaluation and molecular docking studies” (Medchemcomm, 2017)
# Sequences of proteins named here, by UniProt entry; tags and fusion partners are left off.
# UniProt P21397, whole entry: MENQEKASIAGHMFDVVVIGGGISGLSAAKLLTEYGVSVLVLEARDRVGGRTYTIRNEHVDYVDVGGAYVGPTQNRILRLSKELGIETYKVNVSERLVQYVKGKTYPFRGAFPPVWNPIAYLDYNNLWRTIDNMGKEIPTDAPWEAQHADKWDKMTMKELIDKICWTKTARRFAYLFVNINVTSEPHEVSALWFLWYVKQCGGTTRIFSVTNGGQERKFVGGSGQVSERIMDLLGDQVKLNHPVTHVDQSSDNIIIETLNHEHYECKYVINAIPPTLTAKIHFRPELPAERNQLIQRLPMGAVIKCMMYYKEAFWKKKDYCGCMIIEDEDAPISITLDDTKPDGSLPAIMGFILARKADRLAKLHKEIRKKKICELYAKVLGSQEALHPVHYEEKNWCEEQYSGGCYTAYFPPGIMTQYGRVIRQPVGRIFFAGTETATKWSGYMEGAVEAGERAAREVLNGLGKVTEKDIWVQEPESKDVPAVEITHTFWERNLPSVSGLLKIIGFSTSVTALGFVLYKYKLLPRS
# UniProt P27338, whole entry: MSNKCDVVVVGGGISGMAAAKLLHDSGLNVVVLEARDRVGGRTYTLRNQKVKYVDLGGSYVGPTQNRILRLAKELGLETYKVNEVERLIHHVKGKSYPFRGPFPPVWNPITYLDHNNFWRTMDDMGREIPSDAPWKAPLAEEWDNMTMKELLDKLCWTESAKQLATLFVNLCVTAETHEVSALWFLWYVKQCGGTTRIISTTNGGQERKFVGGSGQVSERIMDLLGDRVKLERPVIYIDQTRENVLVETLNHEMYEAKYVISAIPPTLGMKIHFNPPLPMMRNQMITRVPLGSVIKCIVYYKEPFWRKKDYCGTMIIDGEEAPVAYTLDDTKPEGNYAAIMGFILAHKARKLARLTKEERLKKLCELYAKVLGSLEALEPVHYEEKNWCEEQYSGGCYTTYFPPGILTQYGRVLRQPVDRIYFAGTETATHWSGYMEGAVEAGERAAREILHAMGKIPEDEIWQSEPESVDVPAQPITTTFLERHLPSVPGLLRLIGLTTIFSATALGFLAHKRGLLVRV
# pIC50: −log10 of the molar value.
# What was measured:
# [1] = target: Amine oxidase [flavin-containing] A (Homo sapiens, UniProt P21397); assay: Inhibition of human MAOA pre-incubated for 10 mins before p-tyramine substrate addition and measured after 10 mins by amplex red reagent-based microplate fluorescence reader analysis
# [2] = target: Amine oxidase [flavin-containing] B (Homo sapiens, UniProt P27338)
compound,measurement,setting,value
Cc1cccc(C)c1NC(=S)N/N=C/c1ccc(-n2nc3c(c2C)N(C)S(=O)(=O)c2ccccc2-3)cc1,pIC50,[1],8.00
same,pIC50,[2],5.21
